Holding throughout (type): cell-based
Experiment [1] has as its target T1, human P2X4 (Homo sapiens, UniProt Q99571).
T1 construct: expressed in transfected cells
T1 sequence (Q99571 1-388): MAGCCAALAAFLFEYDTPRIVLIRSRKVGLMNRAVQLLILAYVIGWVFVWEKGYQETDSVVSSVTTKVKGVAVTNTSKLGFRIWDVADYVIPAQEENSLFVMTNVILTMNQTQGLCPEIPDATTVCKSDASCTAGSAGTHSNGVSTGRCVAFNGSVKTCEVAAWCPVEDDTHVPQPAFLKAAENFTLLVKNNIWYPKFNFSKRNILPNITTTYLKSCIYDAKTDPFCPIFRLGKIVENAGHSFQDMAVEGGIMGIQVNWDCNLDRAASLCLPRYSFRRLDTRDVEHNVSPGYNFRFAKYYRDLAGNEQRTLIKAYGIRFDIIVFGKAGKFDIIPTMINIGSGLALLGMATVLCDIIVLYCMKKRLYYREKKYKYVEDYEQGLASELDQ
The experiment in a line: Intracellular Ca2+ assay (Fura-2, FlexStation 3), agonist responses in 1321N1 cells stably expressing human P2X4. The conditions noted are these: 1321N1 cells expressing human P2X4; peak Ca2+ response.

In experiment [2] the target is T2, mouse P2X4 (Mus musculus, UniProt Q9JJX6).
T2 construct: expressed in transfected cells
T2 sequence (Q9JJX6 1-388): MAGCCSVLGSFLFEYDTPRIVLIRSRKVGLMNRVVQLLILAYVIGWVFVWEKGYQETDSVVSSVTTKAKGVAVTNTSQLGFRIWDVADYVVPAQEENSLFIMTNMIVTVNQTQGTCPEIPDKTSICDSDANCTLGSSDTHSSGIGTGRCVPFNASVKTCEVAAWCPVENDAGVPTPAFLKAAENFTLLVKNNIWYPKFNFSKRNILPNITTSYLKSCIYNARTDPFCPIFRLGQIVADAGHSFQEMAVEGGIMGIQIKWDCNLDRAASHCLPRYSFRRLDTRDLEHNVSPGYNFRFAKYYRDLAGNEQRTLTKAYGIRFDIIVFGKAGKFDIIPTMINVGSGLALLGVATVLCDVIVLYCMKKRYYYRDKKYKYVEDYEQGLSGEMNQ
As to the kind of experiment: Intracellular Ca2+ assay (Fura-2, FlexStation 3), agonist responses in 1321N1 cells stably expressing mouse P2X4. The following applies: 1321N1 cells expressing mouse P2X4; peak Ca2+ response.

Experiment [3] deals with T1, human P2X4. As to the kind of experiment: Intracellular Ca2+ assay, antagonists against Ca2+ responses evoked by EC80 ATP (1.5 µM) in 1321N1 cells expressing human P2X4.
The target in experiment [4] is T2, mouse P2X4. As to the kind of experiment: Intracellular Ca2+ assay, antagonists against Ca2+ responses evoked by EC80 ATP (1.5 µM) in 1321N1 cells expressing mouse P2X4.

This is an account of results in paper PMC11554605, “Pharmacological differences between human and mouse P2X4 receptor explored using old and new tools” (Purinergic Signalling, 2024).

Like-named read-outs stand apart in the source and are kept apart here.

Usually EC50 stands for the concentration giving half of the maximal effect. For the molecule `Nc1ccn([C@@H]2O[C@H](COP(=O)(O)OP(=O)(O)OP(=O)(O)O)[C@@H](O)[C@H]2O)c(=O)n1` [CTP, Cytidine 5′-triphosphate], the EC50 at human P2X4 [1] worked out at 20 ± 4 µM; on mouse P2X4 [2], 10 ± 1 µM.
One may read the IC50 as the concentration needed to halve the response being measured. For `Cc1nc(/N=N/c2ccc(S(=O)(=O)O)cc2S(=O)(=O)O)c(COP(=O)(O)O)c(C=O)c1O` [PPADS, Pyridoxalphosphate-6-azophenyl-2′,4′-disulfonic acid], the results for the IC50 on human P2X4 [3] (read-out: IC50 Human) and at mouse P2X4 [4] were 34 ± 16 µM and 42 ± 14 µM, respectively.
In the case of `Cc1ccc(S(=O)(=O)N2c3ccccc3Oc3ccccc32)cc1` [PSB-12062, N-(p-methylphenylsulfonyl)phenoxazine], the IC50 on human P2X4 [3] (read-out: IC50 Human) came out at 0.248 ± 0.041 µM.
Molecule `Nc1ncnc2c1ncn2[C@@H]1O[C@H](COP(=O)(O)OP(=O)(O)OP(=O)(O)O)[C@H]2OC3(O[C@H]21)C([N+](=O)[O-])=CC(=[N+]([O-])[O-])C=C3[N+](=O)[O-]` (stereo partly drawn) [TNP-ATP, 2′,3′-O-(2,4,6-Trinitrophenyl)-ATP] yielded an IC50 at human P2X4 [3] of 17 ± 5 µM.
